Assay results published in ChEMBL document CHEMBL5154744, “Stereo-Defined Acyclic Nucleoside Phosphonates are Selective and Potent Inhibitors of Parasite 6-Oxopurine Phosphoribosyltransferases” (J Med Chem, 2022).

Target: T1, Hypoxanthine-guanine phosphoribosyltransferase (Homo sapiens, UniProt P00492)
T1 sequence (P00492 whole entry): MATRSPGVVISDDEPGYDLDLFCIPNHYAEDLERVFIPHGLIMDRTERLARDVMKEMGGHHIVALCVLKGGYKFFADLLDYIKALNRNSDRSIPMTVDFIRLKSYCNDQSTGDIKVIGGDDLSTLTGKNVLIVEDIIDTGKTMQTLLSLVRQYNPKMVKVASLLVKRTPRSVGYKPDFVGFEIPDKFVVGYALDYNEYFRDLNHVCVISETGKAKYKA
Assay: Inhibition of human HGPRT using PRib-PP as substrate by spectrophotometric assay

SMILES: O=C(CCP(=O)(O)O)N1CC(OC[C@@H](O)P(=O)(O)O)[C@H](n2cnc3c(=O)[nH]cnc32)C1 (stereo partly specified)
- Ki: 1.3 nM
